Data as given in patent US11110171B2, “PD-1 related cancer therapy” (New York University, priority 2017, dated 2021).

Target: SHP2 (Homo sapiens, UniProt Q06124)
Test: Anti-phosphotyrosine (4G10) immunoblot of SHP099-treated Jurkat T cells after affinity purification with His-tagged SAP
Format: cell-based
Details: SHP099 10 uM
Method: FIG. 4. SAP inhibits SHP2 activity. (a) Jurkat T cells stably transfected with shRNA for SAP (SAP KD), SHP2 (SHP2 KD) and non-targeting control (Control) were treated for one hour with SHP099 (10 uM), followed by stimulation with magnetic beads coated with anti-CD3, or anti-CD3+PDL2 for 5 minutes. At this time, the cells were harvested, and analyzed by immunoblotting, as indicated. (b) Jurkat T cells, transfected with siRNA for SAP (SAP KD) and non-targeting control (Control), were treated with pervanadate to induce maximal phosphorylation, followed by five serial washes, lysis and diafiltration to remove the drug and to exchange the buffer to a phosphatase-compatible buffer. […] (e-g) Enzymatic activity of SHP2^PTP was measured using a Malachite Green assay, with p60-SRC (e), SLAMF5 Y279 (f), CD3 Y142 (g), CD28 Y172 (h), and CD28 Y190 (i) peptides as substrates. […]
First, SAP could bind SHP2 and directly block the SHP2 catalytic site, or alternatively, SAP might not bind to SHP2, but rather could bind to its substrates and thereby block the interaction between SHP2 and its enzymatic substrates. […] To test the effect of SAP on SHP2 mediated dephosphorylation events, we measured SHP2-mediated dephosphorylation of p60-SRC Y416 (FIG. 4e), SLAMF5 Y279 (FIG. 4f), and CD3 Y142 (FIG. 4g) phosphotyrosyl peptides by Malachite Green assays. […]

levels of select tyrosine phosphorylated proteins (detected by 4G10 antibody): increase
Compound: CC1(N)CCN(c2cnc(-c3cccc(Cl)c3Cl)c(N)n2)CC1.Cl [SHP099]
